In the supplement of paper PMC11537057:
Shown are results outside the selection of hits, which stands elsewhere.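 Rule for the calls: active = infection cut by 80% or more with cell growth above 90% in both runs; inactive = the rest.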

tested on: HSV-1 strain 17 YFP-ICP4 in A549; experiment: HSV-1 infection relative to DMSO (ICP4-YFP per H2B-RFP signal); higher = more viral infection (less antiviral activity), active = hit call of the paper; conditions: 10 µM; 48 h; MOI: 0.1
Description: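 Selleck FDA-approved library (L1300) screened in duplicate at 10 µM on A549 H2B-mRuby cells in 384-well plates, infected with HSV-1 strain 17 YFP-ICP4 at MOI 0.1 one hour before drug addition. Imaged after 2 days at 37°C. Cell growth (H2B-RFP) and infection (ICP4-YFP) are expressed as % of DMSO-treated wells. Hits: growth >90% and infection <20% of DMSO.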

Compound | HSV-1 infection
CC[C@H](C)[C@H](NC(=O)[C@@H]1CCCN1C(=O)CNC(=O)[C@H](Cc1ccccc1)NC(=O)[C@H](CC(N)=O)NC(=O)[C@H](CC(N)=O)NC(=O)[C@H](CO)NC(=O)[C@H](CO)NC(=O)[C@H](Cc1c[nH]cn1)NC(=O)[C@@H](NC(=O)[C@H](CC(C)C)NC(=O)[C@H](Cc1ccccc1)NC(=O)[C@H](CC(N)=O)NC(=O)[C@H](C)NC(=O)[C@H](CC(C)C)NC(=O)[C@H](CCCNC(=N)N)NC(=O)[C@H](CCC(N)=O)NC(=O)[C@@H](NC(=O)[C@H](C)NC(=O)[C@@H]1CSSC[C@H](NC(=O)[C@@H](N)CCCCN)C(=O)N[C@@H](CC(N)=O)C(=O)N[C@@H]([C@@H](C)O)C(=O)N[C@@H](C)C(=O)N[C@@H]([C@@H](C)O)C(=O)N1)[C@@H](C)O)C(C)C)C(=O)N[C@@H](CC(C)C)C(=O)N1CCC[C@H]1C(=O)N1CCC[C@H]1C(=O)N[C@H](C(=O)N[C@@H](CC(N)=O)C(=O)N[C@H](C(=O)NCC(=O)N[C@@H](CO)C(=O)N[C@@H](CC(N)=O)C(=O)N[C@H](C(=O)N[C@@H](Cc1ccc(O)cc1)C(N)=O)[C@@H](C)O)C(C)C)[C@@H](C)O [Pramlintide Acetate] | inactive: 102%
